Measured values taken from patent publication US10239843B2 (CANCER RESEARCH TECHNOLOGY LIMITED, priority 2014, dated 2019).

The chains behind the UniProt entries cited, without tags or fusion partners. Where a name states a change or a piece, a line headed by the entry shows the natural chain unless it says otherwise.
UniProt Q86W56: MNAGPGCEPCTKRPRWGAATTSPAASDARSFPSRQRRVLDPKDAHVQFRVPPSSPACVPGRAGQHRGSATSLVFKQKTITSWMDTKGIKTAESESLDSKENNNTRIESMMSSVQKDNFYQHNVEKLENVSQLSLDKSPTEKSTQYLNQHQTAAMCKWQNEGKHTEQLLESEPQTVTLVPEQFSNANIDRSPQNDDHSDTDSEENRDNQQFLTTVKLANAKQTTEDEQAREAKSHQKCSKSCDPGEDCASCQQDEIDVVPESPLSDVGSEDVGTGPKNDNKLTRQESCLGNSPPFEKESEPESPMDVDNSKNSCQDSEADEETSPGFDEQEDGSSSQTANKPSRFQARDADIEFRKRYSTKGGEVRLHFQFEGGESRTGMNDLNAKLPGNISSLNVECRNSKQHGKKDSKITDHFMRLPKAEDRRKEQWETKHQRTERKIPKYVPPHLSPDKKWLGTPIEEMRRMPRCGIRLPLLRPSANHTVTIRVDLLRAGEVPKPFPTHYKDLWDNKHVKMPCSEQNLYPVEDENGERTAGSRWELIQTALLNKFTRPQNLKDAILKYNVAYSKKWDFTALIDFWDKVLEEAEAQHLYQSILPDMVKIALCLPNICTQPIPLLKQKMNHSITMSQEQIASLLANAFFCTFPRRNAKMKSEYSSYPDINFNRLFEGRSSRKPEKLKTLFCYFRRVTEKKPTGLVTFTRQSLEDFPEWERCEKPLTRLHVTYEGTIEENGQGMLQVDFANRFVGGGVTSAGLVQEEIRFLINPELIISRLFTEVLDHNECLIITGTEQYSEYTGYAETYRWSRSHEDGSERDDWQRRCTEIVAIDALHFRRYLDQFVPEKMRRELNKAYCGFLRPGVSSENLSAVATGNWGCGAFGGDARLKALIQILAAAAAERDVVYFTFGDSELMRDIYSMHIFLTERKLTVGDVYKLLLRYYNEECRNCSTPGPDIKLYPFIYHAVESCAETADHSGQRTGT

Biological target: Human Full Length PARG (Homo sapiens (Human), UniProt Q86W56)
Assay: PARG enzyme assay (TR-FRET)
Type: biochemical
Details: read-out: PARG Biochem IC50 Geomean

CCn1c(=O)n(Cc2cnn(C)c2)c(=O)c2cc(S(=O)(=O)NC3(C)CC3)ccc21 [Example 291]
pIC50: 6.87

pIC50: −log10 of the molar value.
